The subject of this data set is monkey. Put plainly: Preclinical monkey studies (hypoglycemia and metabolic acidosis).

The structures appear in SMILES notation.

The source of these data is US20210361618A1, “TRIPLET COMBINATION FORMULATIONS AND METHODS FOR TREATING OR REDUCING THE RISK OF CARDIOVASCULAR DISEASE” (priority 2017, published 2021).

Turning to `CC(C)(CCCCCC(O)CCCCCC(C)(C)C(=O)O)C(=O)O` [Bempedoic acid, 8-hydroxy-2,2,14,14 tetramethylpentadecanedioic acid], the “Exposures in monkey studies relative to those associated with the 180-mg dose in Phase 1 and 2 clinical studies” value (monkey studies with hypoglycemia and metabolic acidosis) was no less than 17 times. The reversibility of hypoglycemia result (subsequent monkey studies) is “reversible with discontinuation of dosing and oral glucose administration”.
